The entries are a selection whose mix differs from that of the whole data set. Some results for these compounds are left out of this collection, so the calls shown say nothing about other tests. Active and inactive are the calls of the source. No stated cut-off is given here; in the data, active means activation above about 19% (passing the limit was not always enough); inactive means the rest.
What follows are compounds tested against Muscarinic acetylcholine receptor M1 (Homo sapiens) (UniProt P11229) (assay: CHRM1 PAMs potentiating acetylcholine calcium signal – CHO-K1 cells, Fluo-8 calcium fluorescence, 1536-well, primary screen (AID 588819)). Settings: CHO-K1 hM1, Fluo-8 calcium fluorescence, ACh EC20; at 3 µM; active compounds read high; 0% = ACh EC20, 100% = maximal ACh.

Protein sequences, listed by entry. Tags and fused reporters are not part of them.
UniProt P11229, whole entry: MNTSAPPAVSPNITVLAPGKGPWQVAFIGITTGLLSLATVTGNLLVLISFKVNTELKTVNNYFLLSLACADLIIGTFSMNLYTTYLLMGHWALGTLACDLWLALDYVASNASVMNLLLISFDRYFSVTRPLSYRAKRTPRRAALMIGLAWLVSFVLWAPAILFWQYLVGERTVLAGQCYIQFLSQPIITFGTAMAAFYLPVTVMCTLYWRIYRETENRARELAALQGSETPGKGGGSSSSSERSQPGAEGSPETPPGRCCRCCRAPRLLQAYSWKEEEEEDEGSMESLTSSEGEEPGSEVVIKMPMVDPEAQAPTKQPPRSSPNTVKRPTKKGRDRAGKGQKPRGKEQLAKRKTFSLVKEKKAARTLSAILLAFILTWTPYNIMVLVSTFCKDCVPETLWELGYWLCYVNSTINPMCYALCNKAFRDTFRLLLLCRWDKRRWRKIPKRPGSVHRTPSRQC

Row | SMILES | activation
1 | CN(C)c1cccc(C(=O)NCC2(N(C)C)CCCCC2)c1 | inactive: 2.43%
2 | CC(C)Oc1ccc(C(=O)NCC2(N(C)C)CCCCC2)cc1 | inactive: 1.2%
3 | O=C(OCCN1CCCC1)C(O)(c1ccccc1)c1ccccc1 | inactive: -30.1%
4 | COc1ccc(Br)c(C(=O)NCC2(N3CCCCC3)CCCCC2)c1 | inactive: 2.58%
5 | C=C(C)C#CC(O)(C(=O)OC1CCN(C)CC1)c1ccccc1 (stereo not drawn) | inactive: -29.7%
6 | O=C(OC1CN2CCC1CC2)C(CO)(c1ccccc1)c1ccccc1 (stereo not drawn) | inactive: -22.6%
7 | O=C(NCC1(N2CCCCC2)CCCCC1)c1cccc(Cl)c1 | inactive: 19.1%
8 | COc1cccc(C(=O)NCC2(N3CCCCC3)CCCCC2)c1 | inactive: 6.61%
9 | COc1ccc(Cl)cc1C(=O)NCC1(N(C)C)CCCCC1 | inactive: -3.09%
10 | COc1cc(C(=O)NCC2(N(C)C)CCCCC2)c([N+](=O)[O-])cc1OC | inactive: 14.7%
11 | CN(C)C1(CNC(=O)c2ccc(Br)cc2)CCCCC1 | inactive: 6.27%
12 | Cc1cc(C(=O)NCC2(N3CCCCC3)CCCCC2)ccc1[N+](=O)[O-] | inactive: 7.26%
13 | O=C(NCC1(N2CCCCC2)CCCCC1)c1cccc(Br)c1 | inactive: 12.1%
14 | COc1ccc(C(=O)NCC2(N(C)C)CCCCC2)cc1 | inactive: 2.76%
15 | C=CCN1CCN(CCOC(=O)C(O)(c2ccccc2)c2ccccc2)CC1 | inactive: -38.1%
16 | O=C(NCC1(N2CCCCC2)CCCCC1)c1cc(F)c(F)cc1Cl | inactive: -2.89%
17 | Cc1ccccc1C(=O)NCC1(N2CCCCC2)CCCCC1 | inactive: 8.87%
18 | CN(C)c1ccc(C(=O)NCC2(N(C)C)CCCCC2)cc1 | inactive: 11.9%
19 | Cc1ccc(C(=O)NCC2(N3CCCCC3)CCCCC2)cc1 | inactive: 7.5%
20 | CC(C)N1C(=O)CC2(CCN(CCOC(=O)C(O)(c3ccccc3)c3ccccc3)CC2)C1=O | inactive: 1.87%
21 | CCN(CC)CC(C)C(C)OC(=O)C(O)(c1ccccc1)c1ccccc1 (stereo not drawn) | inactive: -21.4%
22 | COc1cc(SC)ccc1C(=O)NCC1(N(C)C)CCCCC1 | inactive: 11.6%
23 | O=C(NCC1(N2CCCCC2)CCCCC1)c1cc([N+](=O)[O-])ccc1Cl | inactive: -0.67%

Reference: PubChem BioAssay AID588819 (The Scripps Research Institute Molecular Screening Center, 2011)
